# Experimental data taken from ChEMBL document CHEMBL1145898, “Molecular docking studies of natural cholinesterase-inhibiting steroidal alkaloids from Sarcococca saligna” (J Med Chem, 2003).
# Chains of the proteins cited; added tags and fusions are not shown. Lines headed by an entry give the natural chain unless they say otherwise; changes in a name come on top.
# UniProt P04058: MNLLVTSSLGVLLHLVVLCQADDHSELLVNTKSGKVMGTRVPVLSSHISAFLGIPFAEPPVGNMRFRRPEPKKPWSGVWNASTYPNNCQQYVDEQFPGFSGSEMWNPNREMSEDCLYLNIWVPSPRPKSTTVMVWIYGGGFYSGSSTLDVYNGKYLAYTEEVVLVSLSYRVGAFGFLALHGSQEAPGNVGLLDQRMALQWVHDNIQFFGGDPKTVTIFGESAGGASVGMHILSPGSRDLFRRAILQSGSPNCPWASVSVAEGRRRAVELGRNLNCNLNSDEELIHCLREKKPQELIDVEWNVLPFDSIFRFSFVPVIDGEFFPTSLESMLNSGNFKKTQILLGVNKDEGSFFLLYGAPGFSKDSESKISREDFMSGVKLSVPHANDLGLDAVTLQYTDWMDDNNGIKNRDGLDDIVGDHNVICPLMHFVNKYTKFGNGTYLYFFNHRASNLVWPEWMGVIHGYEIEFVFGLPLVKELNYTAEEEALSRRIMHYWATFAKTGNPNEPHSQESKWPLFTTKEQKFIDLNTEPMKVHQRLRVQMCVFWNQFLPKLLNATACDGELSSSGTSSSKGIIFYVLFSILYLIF
# Target: Acetylcholinesterase (Torpedo californica, UniProt P04058)
# Experiment: In vitro anticholinesterase activity was determined against acetylcholinesterase from Torpedo californica
# Design: species or system Tetronarce californica
structure (smiles),measurement,value
C/C=C(\C)C(=O)N[C@H]1CC[C@@]2(C)C(=CC[C@H]3C4=CC[C@H]([C@H](C)N(C)C)[C@@]4(C)CC[C@@H]32)C1=O,IC50,5.8 µM
